Reference: patent US6534659B2, “Sufidomaidocarboxylic acids, method for production thereof, and use therefor” (Nippon Shokubai Co., Ltd., priority 2000, dated 2003)

Assays:
[1] = Ability to inhibit corrosion by polarization resistance (Rp), iron electrodes; conditions: for Rp: iron electrode, sodium salt
[2] = Ability to inhibit corrosion by polarization resistance (Rp), low-carbon steel electrodes (X65); conditions: Electrode X65
[3] = Electrode Fe, S group 14.2 μmole/liter, PEI 10 ppm
[4] = S group 14.2 μmole/liter, PEI 10 ppm

SMILES | Rp After 20 min. [1, 3] [ohm] | Rp After 15 hrs [1, 3] [ohm] | Rp Peak [1, 3] [ohm] | Rp ([1]; after the elapse of 20 minutes) | Rp ([1]; after the elapse of 15 hours) | Rp ([1]; peak) | Rp After 20 min. [2, 4] [ohm] | Rp Peak [2, 4] [ohm] | Rp After 20 hours ([2]; footnote **: After 20 hours) [ohm] | Rp After 25 minutes ([1]; Electrode Fe, footnote *: After 25 minutes) | Rp ([1]; after the elapse of 25 minutes)
CC1(C)SCCN1C(=O)c1ccccc1C(=O)O [Example 1, N-(2-carboxybenzoyl)-2,2-dimethylthiazolidine] | 210 | 3000 | 7100 | 210 Ω | 3000 Ω | about 7100 Ω | 620 | 6500 | 3380 |  | 
CC1(C)SCCN1C(=O)CCC(=O)O [Example 3, N-(2-carboxylethylcarbonyl)-2,2-dimethylthiazolidine] |  | 3600 | 4160 |  | 3600 Ω | about 4160 Ω |  |  |  | 280* ohm | 280 Ω
